# Earlier results in patent publication US20080207643A1, “Composition for Treating Hyperlipaemia” (priority 2004, published 2008).
# Target: T1, HMG-CoA reducase (Homo sapiens, UniProt P04035)
# T1 sequence (P04035 1-888): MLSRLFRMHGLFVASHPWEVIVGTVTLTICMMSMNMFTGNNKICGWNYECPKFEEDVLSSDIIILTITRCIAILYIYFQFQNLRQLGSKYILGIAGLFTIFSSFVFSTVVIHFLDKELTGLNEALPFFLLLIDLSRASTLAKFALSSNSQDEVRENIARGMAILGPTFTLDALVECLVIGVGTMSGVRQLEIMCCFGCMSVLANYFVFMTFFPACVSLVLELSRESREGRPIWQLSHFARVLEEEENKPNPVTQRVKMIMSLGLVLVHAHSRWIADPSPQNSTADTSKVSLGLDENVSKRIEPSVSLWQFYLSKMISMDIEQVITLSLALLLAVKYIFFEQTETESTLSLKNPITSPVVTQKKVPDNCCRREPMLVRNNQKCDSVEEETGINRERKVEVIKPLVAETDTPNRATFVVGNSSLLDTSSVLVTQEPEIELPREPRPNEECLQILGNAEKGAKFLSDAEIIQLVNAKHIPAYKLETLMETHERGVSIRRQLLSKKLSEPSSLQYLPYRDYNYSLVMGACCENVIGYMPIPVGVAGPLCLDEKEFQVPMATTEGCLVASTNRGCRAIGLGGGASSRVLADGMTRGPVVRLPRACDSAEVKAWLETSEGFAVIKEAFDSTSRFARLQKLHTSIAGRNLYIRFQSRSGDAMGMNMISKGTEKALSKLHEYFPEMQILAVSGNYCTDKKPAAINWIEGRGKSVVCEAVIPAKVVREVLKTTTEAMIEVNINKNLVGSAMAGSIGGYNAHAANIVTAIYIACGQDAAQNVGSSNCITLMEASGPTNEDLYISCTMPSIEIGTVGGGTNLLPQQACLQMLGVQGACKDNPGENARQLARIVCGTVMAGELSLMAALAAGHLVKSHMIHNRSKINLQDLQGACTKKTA
# Settings: read-out: 50% Inhibition concentration (IC50) on HMG-CoA reducase; cited from earlier work
row,SMILES,IC50
1,"CC(C)c1c(C(=O)Nc2ccccc2)c(-c2ccccc2)c(-c2ccc(F)cc2)n1CC[C@@H](O)C[C@@H](O)CC(=O)O [Atorvastatin calcium, calcium [R-(R′,R′)]2-(4-fluorophenyl)-βδ-dihydroxyl-5-(1-methylethyl)-3-phenyl-4-[aniline]carbonyl]-1-hydro-pyrrolyl-1-heptanoate trihydrate]",73 nM
2,CC[C@H](C)C(=O)O[C@H]1C[C@H](O)C=C2C=C[C@H](C)[C@H](CC[C@@H](O)C[C@@H](O)CC(=O)O)[C@H]21 [pravastatin],2650 nM
